The list shows a part of the results, in another mix than the full data. Calls of active or inactive are those of the source. Rule as the data show it: active = response mostly above about 7.3% (no sharp cut-off); inactive = mostly below about 5.4%.
Assay: yeast vacuolar ATPase proton transport modulators – pHLuorin cytosolic pH fluorescence, primary screen (AID 504577); also: actives read high
Details: S. cerevisiae, at 10 µM, stronger effect = higher value

Row | Structure (SMILES) | response
1 | CCC(=O)N(c1ccccc1)C1(COC)CCN(CCn2nnn(CC)c2=O)CC1 | inactive: -2.84%
2 | CCC(=O)N(c1ccccc1)C1(COC)CCN(CCc2cccs2)CC1 | inactive: 1.08%
